This assay addresses Kappa-type opioid receptor (Homo sapiens) (UniProt P41145). Kind of assay: Antagonist activity at human kappa opioid receptor expressed in CHO cell membrane assessed as inhibition of U50,488-induced [35S]GTPgammaS binding after 60 mins by liquid scintillation counting. Background: Binding of GTPγS marks nucleotide exchange on a G protein.

The chains behind the UniProt entries cited, without tags or fusion partners. Where a name states a change or a piece, a line headed by the entry shows the natural chain unless it says otherwise.
UniProt P41145: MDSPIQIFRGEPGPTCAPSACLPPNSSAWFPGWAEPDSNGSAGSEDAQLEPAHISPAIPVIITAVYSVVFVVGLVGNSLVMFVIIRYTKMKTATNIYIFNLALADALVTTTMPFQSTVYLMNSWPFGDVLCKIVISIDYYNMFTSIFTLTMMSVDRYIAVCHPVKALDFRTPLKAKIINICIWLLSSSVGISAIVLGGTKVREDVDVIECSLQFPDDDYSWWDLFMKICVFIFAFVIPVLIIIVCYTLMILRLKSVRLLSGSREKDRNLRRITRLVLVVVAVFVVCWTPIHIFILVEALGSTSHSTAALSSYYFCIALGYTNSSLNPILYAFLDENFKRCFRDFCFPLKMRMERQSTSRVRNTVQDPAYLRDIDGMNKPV

Activity calls are given as the source filed them. The rule behind the calls is not given here.

Regarding `C[C@H]1C2Cc3ccc(C(N)=O)cc3[C@@]1(C)CCN2CC1CC1`, the inhibition entry was “inactive”.

(Values after ChEMBL document CHEMBL2346652.)
